Laboratory results as given in ChEMBL document CHEMBL6096732 (J Med Chem, 2025).

Molecular target: T1, Polyamine deacetylase HDAC10 (Homo sapiens, UniProt Q969S8)
T1 sequence (Q969S8 whole entry): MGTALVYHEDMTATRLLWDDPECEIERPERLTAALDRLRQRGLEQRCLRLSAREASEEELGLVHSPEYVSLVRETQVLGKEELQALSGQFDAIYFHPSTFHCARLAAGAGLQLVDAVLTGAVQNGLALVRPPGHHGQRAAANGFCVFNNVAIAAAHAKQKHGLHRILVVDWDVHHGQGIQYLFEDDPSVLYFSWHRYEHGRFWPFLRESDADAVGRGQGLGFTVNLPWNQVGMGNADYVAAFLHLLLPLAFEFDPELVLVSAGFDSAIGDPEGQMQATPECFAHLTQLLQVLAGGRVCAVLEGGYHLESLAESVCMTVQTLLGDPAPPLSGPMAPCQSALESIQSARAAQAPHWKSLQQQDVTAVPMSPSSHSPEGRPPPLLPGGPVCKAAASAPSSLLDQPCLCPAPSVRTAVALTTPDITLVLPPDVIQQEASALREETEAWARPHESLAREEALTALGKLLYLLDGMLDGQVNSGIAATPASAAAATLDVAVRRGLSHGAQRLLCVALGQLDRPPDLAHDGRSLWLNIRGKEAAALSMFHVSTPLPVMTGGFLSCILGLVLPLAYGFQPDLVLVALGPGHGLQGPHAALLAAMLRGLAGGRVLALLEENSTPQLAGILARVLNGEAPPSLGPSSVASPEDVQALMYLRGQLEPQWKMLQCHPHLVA
Test: Inhibition of recombinant HDAC10 (unknown origin) preincubated for 1 hr followed by substrate addition and measured after 2 hrs by fluorescence based micro plate reader analysis

IC50: > 10 µM
SMILES: O=C(CCCCCCC(=O)Nc1ccccc1)NO [VORINOSTAT]
